Target: Receptor-type tyrosine-protein phosphatase C (Homo sapiens, UniProt P08575)
Assay: Tested for inhibitory activity against CD-45 tyrosine phosphatase of Jurkat cell membrane at 1000 uM

Sequences of proteins named here, by UniProt entry; tags and fusion partners are left off. Residues count along the entry.
UniProt P08575, 26-1306 limits assumed: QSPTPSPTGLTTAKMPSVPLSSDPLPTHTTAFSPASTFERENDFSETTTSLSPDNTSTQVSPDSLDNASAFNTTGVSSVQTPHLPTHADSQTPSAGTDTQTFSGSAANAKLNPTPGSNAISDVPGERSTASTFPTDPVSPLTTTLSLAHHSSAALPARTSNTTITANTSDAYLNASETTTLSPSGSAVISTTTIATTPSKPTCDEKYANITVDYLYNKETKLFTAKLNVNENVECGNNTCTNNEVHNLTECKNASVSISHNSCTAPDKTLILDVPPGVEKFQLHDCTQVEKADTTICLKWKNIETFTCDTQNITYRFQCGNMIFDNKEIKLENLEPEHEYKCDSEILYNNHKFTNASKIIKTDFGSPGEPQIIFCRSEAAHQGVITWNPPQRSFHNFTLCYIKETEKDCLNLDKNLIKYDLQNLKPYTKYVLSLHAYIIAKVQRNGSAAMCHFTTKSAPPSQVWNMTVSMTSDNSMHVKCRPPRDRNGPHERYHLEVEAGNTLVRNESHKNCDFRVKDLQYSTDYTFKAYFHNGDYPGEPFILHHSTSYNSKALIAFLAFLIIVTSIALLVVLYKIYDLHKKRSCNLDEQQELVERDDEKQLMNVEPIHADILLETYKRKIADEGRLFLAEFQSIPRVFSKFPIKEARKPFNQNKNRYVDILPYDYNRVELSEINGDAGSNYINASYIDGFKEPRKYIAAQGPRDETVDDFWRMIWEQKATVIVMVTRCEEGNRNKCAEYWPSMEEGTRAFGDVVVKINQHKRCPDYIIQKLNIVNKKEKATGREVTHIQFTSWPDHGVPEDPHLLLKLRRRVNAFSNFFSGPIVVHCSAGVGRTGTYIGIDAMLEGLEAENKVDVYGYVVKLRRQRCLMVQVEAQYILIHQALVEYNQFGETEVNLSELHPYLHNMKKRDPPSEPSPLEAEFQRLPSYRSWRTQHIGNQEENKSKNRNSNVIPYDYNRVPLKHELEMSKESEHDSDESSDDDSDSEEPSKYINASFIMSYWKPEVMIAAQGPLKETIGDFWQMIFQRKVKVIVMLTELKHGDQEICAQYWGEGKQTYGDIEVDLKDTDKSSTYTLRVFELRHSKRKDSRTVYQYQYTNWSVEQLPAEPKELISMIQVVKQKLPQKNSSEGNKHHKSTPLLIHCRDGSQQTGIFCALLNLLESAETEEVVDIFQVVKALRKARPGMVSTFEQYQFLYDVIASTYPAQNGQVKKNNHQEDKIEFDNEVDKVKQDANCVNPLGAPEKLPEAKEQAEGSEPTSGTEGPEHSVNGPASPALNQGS

SMILES: [N-]=[N+]=Nc1ccc([N+](=O)[O-])cc1C(O)P(=O)(O)O (stereo unspecified)
- IC50: 8 µM

From ChEMBL document CHEMBL1130370, “Novel hydroxyphosphonate inhibitors of CD-45 tyrosine phosphatase” (Bioorg Med Chem Lett, 1997)
